{"source": "patent US7893078B2", "about": "“Use of cyclopamine in the treatment of basal cell carcinoma and other tumors” (priority 2001, dated 2011)", "key": {"[1]": {"tested_on": "basal cell carcinoma (BCC)", "details": "human, in vivo", "method": "The base cream used is made predominantly of heavy paraffin oil (10% w/w), vaseline (10% w/w), stearyl alcohol (8% w/w), polyoxysteareth-40 (3% w/w) and water (68% w/w), but another suitably formulated base cream is also possible. […] Night-time applications, avoided in this schedule because of possible loss of cream from the patient skin to linens during sleep, can be performed by suitable dermal patches.\nEvery third hour, about 20 μl cream was applied directly onto the lower half and the upper half was left untreated.\nThe tumor was then followed up without treatment for a study of the possible late effects. […] For example expression of the cell adhesion molecule CD44 is known to increase upon differentiation of the epidermal basal cells to the upper spinous layer cells (Kooy A J et al (1999) Human Pathology 30:1328-1335)."}, "[2]": {"tested_on": "cells", "details": "Taipale J. et al (2000) Nature 406; cited from earlier work"}, "[3]": {"tested_on": "trichoepithelioma", "details": "human, in vivo", "from_the_text": "Trichoepithelioma is another tumor associated with genetic changes that cause increased hedgehog-smoothened signalling (Vorechovsky L. et al. (1997) Cancer Res. 57:4677-4681; Nilsson M. et al. (2000) Proc. Natl. Acad. Sci. USA 97:3438-3443)."}}, "data": [{"smiles": "CC1=C2C[C@H]3[C@@H](CC=C4C[C@@H](O)CC[C@@]43C)[C@@H]2CC[C@]12O[C@@H]1C[C@H](C)CN[C@H]1[C@H]2C", "note": "[Cyclopamine]", "values": [{"measurement": "Retraction of BCC from stroma (arrest of proliferation)", "setting": "[1]", "value": "consistently retracted from stroma"}, {"measurement": "Effect on the viability of cells", "setting": "[2]", "value": "no significant effect"}, {"measurement": "Apoptotic activity among residual tumor cells", "setting": "[3]", "value": "marked apoptotic activity"}]}]}
